Experimental data as given in patent US7807702B2 (Eli Lilly and Company, priority 2005, dated 2010).

Sequences of proteins named here, by UniProt entry; tags and fusion partners are left off. Residues count along the entry.
UniProt P47871, 26-477 limits assumed: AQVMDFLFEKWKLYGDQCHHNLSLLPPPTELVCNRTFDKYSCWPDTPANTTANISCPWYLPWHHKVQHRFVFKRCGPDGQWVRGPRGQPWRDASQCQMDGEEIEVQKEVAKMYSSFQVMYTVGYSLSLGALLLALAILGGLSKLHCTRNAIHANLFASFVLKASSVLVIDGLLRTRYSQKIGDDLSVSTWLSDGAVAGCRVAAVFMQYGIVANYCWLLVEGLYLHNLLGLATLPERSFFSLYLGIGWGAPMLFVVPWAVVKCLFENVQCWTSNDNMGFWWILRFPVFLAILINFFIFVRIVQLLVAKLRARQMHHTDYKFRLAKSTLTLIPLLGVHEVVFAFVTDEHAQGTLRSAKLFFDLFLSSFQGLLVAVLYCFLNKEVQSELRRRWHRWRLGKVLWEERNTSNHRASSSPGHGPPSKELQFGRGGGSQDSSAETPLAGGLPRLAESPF

Target: cloned human glucagon receptor (Homo sapiens, UniProt P47871)
Experiment: Glucagon Receptor (hGlucR) Binding Assay
Conditions: SPA with I-125 glucagon, 293HEK membranes

CCC(Sc1cc(C)c(-c2ccc(C(C)(C)C)cc2)c(C)c1)c1ccc(C(=O)NCc2nn[nH]n2)s1 (single isomer, unassigned)
Ki: 18.4 nM
